Laboratory results as given in ChEMBL document CHEMBL4330073, “Discovery and development of small molecule modulators targeting glutamine metabolism” (Eur J Med Chem, 2019).

Target: T1, Glutaminase kidney isoform, mitochondrial (Homo sapiens, UniProt O94925)
T1 sequence (O94925 whole entry): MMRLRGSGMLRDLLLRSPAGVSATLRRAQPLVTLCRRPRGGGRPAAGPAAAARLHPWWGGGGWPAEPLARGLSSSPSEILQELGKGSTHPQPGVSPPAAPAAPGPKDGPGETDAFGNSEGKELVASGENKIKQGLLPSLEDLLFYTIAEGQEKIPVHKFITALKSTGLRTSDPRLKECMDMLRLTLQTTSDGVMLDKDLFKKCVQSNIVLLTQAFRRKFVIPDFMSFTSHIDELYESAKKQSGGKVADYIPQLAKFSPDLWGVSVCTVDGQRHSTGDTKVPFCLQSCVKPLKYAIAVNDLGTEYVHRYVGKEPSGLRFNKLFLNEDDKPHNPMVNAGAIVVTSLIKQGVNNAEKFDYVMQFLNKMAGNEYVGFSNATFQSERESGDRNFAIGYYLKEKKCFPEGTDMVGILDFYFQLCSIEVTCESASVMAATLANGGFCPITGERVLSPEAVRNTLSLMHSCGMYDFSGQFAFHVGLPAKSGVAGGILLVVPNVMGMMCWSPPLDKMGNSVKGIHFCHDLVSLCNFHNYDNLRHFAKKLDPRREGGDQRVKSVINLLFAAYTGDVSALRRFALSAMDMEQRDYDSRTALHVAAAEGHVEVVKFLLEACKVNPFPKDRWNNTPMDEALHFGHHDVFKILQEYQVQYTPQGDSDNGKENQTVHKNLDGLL
Experiment: Inhibition of GAC (unknown origin)

IC50: > 20 µM
Structure (SMILES): O=C(Cc1ccccc1)Nc1nnc(CCCCc2nnc(NC(=O)Cc3ccccc3)o2)o1
